Drawing on ChEMBL document CHEMBL5154825, “Discovery of V-0219: A Small-Molecule Positive Allosteric Modulator of the Glucagon-Like Peptide-1 Receptor toward Oral Treatment for "Diabesity"” (J Med Chem, 2022), this text covers Activity for one molecule.

Calls of active or inactive are those of the source. No cut-off for these calls is given here.

The assay concerns the target T1, Glucagon-like peptide 1 receptor (Rattus norvegicus) (UniProt P32301).
T1 sequence (whole entry): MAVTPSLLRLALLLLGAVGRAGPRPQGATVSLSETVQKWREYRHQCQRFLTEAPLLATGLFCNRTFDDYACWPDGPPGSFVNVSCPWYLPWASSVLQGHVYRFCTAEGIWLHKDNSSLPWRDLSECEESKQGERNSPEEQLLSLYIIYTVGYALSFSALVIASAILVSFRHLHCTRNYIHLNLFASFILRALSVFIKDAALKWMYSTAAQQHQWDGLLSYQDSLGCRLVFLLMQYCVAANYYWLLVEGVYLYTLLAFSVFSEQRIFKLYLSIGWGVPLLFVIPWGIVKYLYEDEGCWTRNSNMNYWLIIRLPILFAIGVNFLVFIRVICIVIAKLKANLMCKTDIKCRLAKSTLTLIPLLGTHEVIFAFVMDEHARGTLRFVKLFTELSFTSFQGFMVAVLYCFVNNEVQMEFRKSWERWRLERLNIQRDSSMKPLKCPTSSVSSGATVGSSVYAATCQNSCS
Briefly: Positive allosteric modulator activity at GLP-1R in rat INS1 beta-cells assessed potentiation of GLP-1(7-36)NH2 induced insulin secretion at 1 uM incubated for 30 mins in presence of 15 mM of glucose by ELISA. It counts as cell-based. To be noted: filed as positive allosteric modulator. In a few lines: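 Rat INS-1 cells held in glucose-free medium for 1.5 h (100,000 cells/well). […] Medium was centrifuged at 4 °C and secreted insulin measured by ELISA.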
In general terms: ELISA stands for enzyme-linked immunosorbent assay.

Regarding `FC(F)(F)c1ccc(-c2noc(CN3CCCC(CN4CCOCC4)C3)n2)cc1` (stereo unspecified), the result was Active.
